For the test, the target named is FOXA2-ΔHx (UniProt P35583). Nature of the test: pull-down.

Sequences of proteins named here, by UniProt entry; tags and fusion partners are left off. A change or cut given only in a name is not applied to a line headed by its entry.
UniProt P35583: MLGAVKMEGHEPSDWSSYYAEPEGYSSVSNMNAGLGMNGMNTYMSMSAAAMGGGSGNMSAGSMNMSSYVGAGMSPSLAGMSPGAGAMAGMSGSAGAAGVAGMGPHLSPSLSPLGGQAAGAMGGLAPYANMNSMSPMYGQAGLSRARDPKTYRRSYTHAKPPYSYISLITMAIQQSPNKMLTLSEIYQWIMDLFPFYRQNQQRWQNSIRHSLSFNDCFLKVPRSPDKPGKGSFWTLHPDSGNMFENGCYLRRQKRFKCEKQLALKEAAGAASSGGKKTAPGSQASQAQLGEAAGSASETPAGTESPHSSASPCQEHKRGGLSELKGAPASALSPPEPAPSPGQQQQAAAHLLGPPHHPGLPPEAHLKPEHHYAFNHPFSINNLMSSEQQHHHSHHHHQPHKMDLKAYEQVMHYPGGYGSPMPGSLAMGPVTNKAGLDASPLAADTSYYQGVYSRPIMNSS

Regarding recombinant histone octamers (complex), the pull-down relative to wild-type FOXA2 (fraction of wild type) is 0.5.

Source of the values: publication PMC7901023.
